This note sets out measurements from patent US20230293647A1.

This assay has as its target Angiotensin II (UniProt P01019). Put plainly: SPR, ACE2-Fc captured on Protein A, angiotensin II as analyte, 1:1 Langmuir fit.

As for “Active ACE2 (18-740)-Fc (ACRO biosystems) (from UniProt Q9BYF1 18-740) (Fc fusion)”, the Kd stood at 117 nM.
